Measurements from US5837843, “Modified protein C” (Oklahoma Medical Research Foundation, dated 1998).

Key:
[1] = target: human activated protein C (APC), wild type (human) (UniProt P04070)
[2] = target: APC-PT Gla (activated chimeric protein C with the Gla domain and hydrophobic stack of prothrombin) (human) (UniProt P04070)

Substance: human prothrombin (from UniProt P00734)
- inhibition of factor Va inactivation by 1.4 µM prothrombin in the first stage [1]: 100 fold
- inhibition of factor Va inactivation by 1.4 µM prothrombin in the first stage [2]: 5 fold
